Apparent affinities of Ab-95 variants for a coronavirus HR2 peptide

Data: MIT Lincoln Laboratory AlphaSeq set, Engelhart et al. 2022, doi:10.1038/s41597-022-01779-4, as distributed in FLAb.

Target: peptide PDVDLGDISGINAS, taken from heptad repeat 2 (HR2) of SARS-CoV-2 spike.

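The parent was found by panning a naive human phage display library on the peptide. Variants in AAYL52 differ from the parent at up to three CDR positions; double and triple changes were sampled at random. Affinity was read by AlphaSeq, a pooled yeast mating assay with surface-displayed partners. The frequency of each diploid, read from paired DNA barcodes, reflects how well the two displayed proteins bind. Read counts were normalised to the haploid input and turned into Kd by a linear fit to BCL2-family pairs of known affinity, for each replicate. There are three technical replicates.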

Ab-95 is the parent antibody, in scFv form: VH, then a (GGGGS)3 linker, then VL. The heavy chain is unchanged in all variants.
VH: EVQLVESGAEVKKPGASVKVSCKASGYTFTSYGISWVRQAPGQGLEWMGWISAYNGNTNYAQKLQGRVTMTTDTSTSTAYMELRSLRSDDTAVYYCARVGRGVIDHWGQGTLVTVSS
VL: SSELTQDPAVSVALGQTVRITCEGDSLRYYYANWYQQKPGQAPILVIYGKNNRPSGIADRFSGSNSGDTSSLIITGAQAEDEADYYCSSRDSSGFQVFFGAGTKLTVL

Variants are written as CDR1, CDR2 and CDR3 of the light chain (limits as in the source). Parent: EGDSLRYYYAN, GKNNRPS, SSRDSSGFQVF. Values are apparent Kd, the geometric mean of the replicates that gave a signal; lower means stronger binding. Where no diploid with the target was found in any replicate, the entry reads "not detected": below detection, most likely a poor binder, though not proof of it. Background: pairings of library AAYL52 with three empty control strains gave a value in 28% of cases (median 8.2 µM, 5th percentile 800 nM). Values in that range, when seen in few replicates, are hard to tell from nonspecific mating. Parent in this assay: reference entry 200 nM, copy in this library 180 nM.

| CDR-L1 | CDR-L2 | CDR-L3 | Kd | replicates with signal |
|---|---|---|---|---|
| EGDSLRYYAAN | GKNNRPS | SSRDSNGFDVF | 370 nM | 2 of 3 |
| ERDSLRYYTAN | GKNNRPS | SSEDSSGFQVF | 2.9 µM | 2 of 3 |
| QEDSLRYYYAN | GKNNRPS | SSRDSSGQQVF | 4.7 µM | 2 of 3 |
| ENDSLSYYYAR | GKNNRPS | SSRDSSGFQVF | 800 nM | 1 of 3 |
| EGDSLRYYYAN | GKNNRPE | SCDDSSGFQVF | 640 nM | 2 of 3 |
| EMDSLRDYYAN | GKNNRPS | SSRDSHGFQVF | not detected | 0 of 3 |
| EGDNLRYYYAN | GKNNRPS | SSRPSSFFQVF | 4.2 µM | 3 of 3 |
| EGDSLRYYYAN | GVNNRPW | SSRDSSGFHVF | 8.2 µM | 3 of 3 |
| EGDSLRYYMAN | GINNRPS | SSRDSSGFQVF | 260 nM | 3 of 3 |
| EGDKLRYSYAK | GKNNRPS | SSRDSSGFQVF | 37 µM | 3 of 3 |
| EGDSLRRTYAN | GKNNRPS | SSRTSSGFQVF | 1.4 µM | 3 of 3 |
| EGDSLRYYYEN | GKNWRKS | SSRDSSGFQVF | 180 µM | 1 of 3 |
| EGDSLRYFYAN | GKNNRPS | MSRDSSGFTVF | 4.5 µM | 3 of 3 |
| EGDSLRYYYAE | GKNLRPS | NSRDSSGFQVF | 78 µM | 2 of 3 |
| EGDSQTYYYAN | CKNNRPS | SSRDSSGFQVF | not detected | 0 of 3 |
| KGDSLRYYYAN | GKNNRPS | SSRDISGFQVF | 440 nM | 3 of 3 |
| EGDSLREYYAN | GKNNRPS | SSRDSSGFWGF | 280 nM | 3 of 3 |
| EGDSLRYYPAN | AKNNRPS | SSRDSSVFQVF | 2.8 µM | 3 of 3 |
| EGDNLRYYYAN | GSQNRPS | SSRDSSGFQVF | 14 µM | 1 of 3 |
| EKDSFRYYYAN | GKNHRPS | SSRDSSGFQVF | 11 µM | 2 of 3 |
| EGMWLRYYYAP | GKNNRPS | SSRDSSGFQVF | 3.0 µM | 1 of 3 |
| NGDSLRYYYAN | GKNNRPS | SSQDLSGFQVF | not detected | 0 of 3 |
| EGDSLRYYHAN | PKNNRPS | TSRDSSGFQVF | 12 µM | 2 of 3 |
| EGDSFRYYYAN | GANNRPC | SSRDSSGFQVF | 4.6 µM | 2 of 3 |
| EGMSLRYYYAN | GKLNRPS | SSRDSQGFQVF | 2.6 µM | 1 of 3 |
| EGSSLRYYYAN | GKNIRPS | SSRDSSGFQVS | 500 nM | 3 of 3 |
| EGDSLRYYYAN | GCNNRPH | SSRDSLGFQVF | 11 µM | 1 of 3 |
| EGDSLRYYYAN | GKNNPWS | SSRDSSGAQVF | 2.2 µM | 2 of 3 |
| EGDSLRYYLAN | GKNNRPS | SSRDSTGFQVE | 180 nM | 3 of 3 |
| HGDSLRYYYAN | GKNNRIS | LSRDSSGFQVF | 450 nM | 3 of 3 |
| EGDSLNYYYAN | GKNRRPS | SSRDSSGFQWF | 3.5 µM | 3 of 3 |
| EGDSLYYYYAN | GKNNRPS | SSFDSSGFQVF | not detected | 0 of 3 |
| EGDSLRYYYIN | GKNQPPS | SSRDSSGFQVF | 1.5 µM | 3 of 3 |
| EGDSLRYYYAN | GKNIRPS | PSRDGSGFQVF | 310 nM | 2 of 3 |
| EGDSLRYYYAN | GKSNAPS | SSRDRSGFQVF | 560 nM | 3 of 3 |
| EGDSLRYYAMN | GKNNRWS | SSRDSSGFQVF | 52 µM | 1 of 3 |
| EGDSLRYYYTN | GKNNRPS | SRRDSSGKQVF | 180 nM | 3 of 3 |
| EGDSLRYYYAN | GGNNRPS | SSRNSVGFQVF | 2.5 µM | 2 of 3 |
| EGDSLRGYYWN | GKNNRPK | SSRDSSGFQVF | 6.1 µM | 1 of 3 |
| EGDSLRYYHAN | GANNRPS | SSRDSSGFQVD | 790 nM | 3 of 3 |
| GGDSLRYYYAN | EKNNRPH | SSRDSSGFQVF | 2.5 µM | 3 of 3 |
| EGDSLRFYYAN | GKNNRPG | SSRDSSGFQVF | 230 nM | 3 of 3 |
| EGRSLRYMYAN | GKNNFPS | SSRDSSGFQVF | 6.2 µM | 1 of 3 |
| EGDSLRYYAAN | FKNNRPS | SSRDSRGFQVF | 120 µM | 1 of 3 |
| EGDSLRSYYAN | GKNNRPS | SSRDSSFFFVF | 13 µM | 1 of 3 |
| EGDSLRYYYAN | KKNNRPS | SSKDSSGFQVF | not detected | 0 of 3 |
| EGNLLRYYYAN | GKNNRPS | SARDSSGFQVF | 140 nM | 3 of 3 |
| EGDPLRYYYAN | GKNNIPA | SSRDSSGFQVF | 560 nM | 3 of 3 |
| EGDSLQYYYAN | GKNNRPS | NSRWSSGFQVF | 1.1 µM | 3 of 3 |
| EGDESRYYYAN | GKNNRPS | SSRDSSGFQVF | 15 µM | 1 of 3 |
| RGISLRYYYAN | GKNNRPS | SSLDSSGFQVF | 27 µM | 2 of 3 |
| EGDSLNYYMAN | GKNTRPS | SSRDSSGFQVF | 71 nM | 3 of 3 |
| KGDSLRYYYPN | GKNNRPS | SSVDSSGFQVF | 1.0 µM | 3 of 3 |
| EGDTLRYYYAN | GKNNLPS | SSRDSSEFQVF | not detected | 0 of 3 |
| EGDSLVYIYAN | GKNNRMS | SSRDSSGFQVF | 9.2 µM | 1 of 3 |
| EGDSLRYYYAN | GKNNDPS | SVVDSSGFQVF | 90 µM | 3 of 3 |
| EGDSLRYYHAN | SKNNRPS | SSRKSSGFQVF | 1.2 µM | 3 of 3 |
| EGDSHRYYYAN | GKNLRPS | SSRISSGFQVF | not detected | 0 of 3 |
| EGDSLRYYYAN | GKDNRPS | SSWDSSGFQVF | 2.6 µM | 2 of 3 |
| EGDSLRYYVAN | GKNNRPS | SSRDGSGFWVF | 6.2 µM | 2 of 3 |
| EGDSLRYYYAN | GKSNRPS | SSRDSPGFGVF | 580 nM | 3 of 3 |
| EGDSLRYYYAN | GVENRPS | SSRDSSGFAVF | 5.6 µM | 2 of 3 |
| EGDSQRYYYAN | GKNCRPS | DSRDSSGFQVF | 1.3 µM | 3 of 3 |
| EGDSCRYYYAN | GKANRPS | SSRDSSGFQWF | 540 nM | 1 of 3 |
| EGDSLRYYYAV | GKNNRPN | SSRDSEGFQVF | 9.3 µM | 1 of 3 |
| EGDSLRYYYAN | GKNNRPR | SSRDSSGFQYF | 1.9 µM | 2 of 3 |
| NGMSLRYYYAN | GKNNRPS | SSRDSSGHQVF | 630 nM | 3 of 3 |
| EGDHRRYYYAN | GKNNRPS | SSRDFSGFQVF | not detected | 0 of 3 |
| EGDSLRYYFAN | VKNNRPS | SSRDSSVFQVF | 720 µM | 1 of 3 |
| EGDSLRYYYAN | GKNNSPY | SSRDLSGFQVF | 8.8 µM | 2 of 3 |
| EGDSLRYYYAN | GKNNRPS | SQRDSHGFQVF | 180 nM | 3 of 3 |
| NGDSLRYYYAN | GKNNRPS | SSRDSSNKQVF | 37 nM | 3 of 3 |
| EGDSLRYYYAN | GKANIMS | SSRDSSGFQVF | 4.0 µM | 1 of 3 |
| EGDSLRYYIAN | GKNNRPS | SSRDSSGADVF | 5.7 µM | 2 of 3 |
| EGDSLRYYYAN | GKNNRPS | SSRTSSGNQVF | 4.2 µM | 2 of 3 |
| EGDSLRYYYNN | GKNNRHT | SSRDSSGFQVF | not detected | 0 of 3 |
| EGDSLRYYYPN | GLNNRPL | SSRDSSGFQVF | 19 nM | 3 of 3 |
| EGDTLRNYYAN | GKNNRPS | SSRDSSGFQWF | 78 nM | 3 of 3 |

From the list, the first 7 with no signal in any replicate:

{"CDR-L1": "EMDSLRDYYAN", "CDR-L2": "GKNNRPS", "CDR-L3": "SSRDSHGFQVF", "Kd": "not detected", "replicates with signal": "0 of 3"}
{"CDR-L1": "EGDSQTYYYAN", "CDR-L2": "CKNNRPS", "CDR-L3": "SSRDSSGFQVF", "Kd": "not detected", "replicates with signal": "0 of 3"}
{"CDR-L1": "NGDSLRYYYAN", "CDR-L2": "GKNNRPS", "CDR-L3": "SSQDLSGFQVF", "Kd": "not detected", "replicates with signal": "0 of 3"}
{"CDR-L1": "EGDSLYYYYAN", "CDR-L2": "GKNNRPS", "CDR-L3": "SSFDSSGFQVF", "Kd": "not detected", "replicates with signal": "0 of 3"}
{"CDR-L1": "EGDSLRYYYAN", "CDR-L2": "KKNNRPS", "CDR-L3": "SSKDSSGFQVF", "Kd": "not detected", "replicates with signal": "0 of 3"}
{"CDR-L1": "EGDTLRYYYAN", "CDR-L2": "GKNNLPS", "CDR-L3": "SSRDSSEFQVF", "Kd": "not detected", "replicates with signal": "0 of 3"}
{"CDR-L1": "EGDSHRYYYAN", "CDR-L2": "GKNLRPS", "CDR-L3": "SSRISSGFQVF", "Kd": "not detected", "replicates with signal": "0 of 3"}